Structures can show the parent of a compound that is named as a salt.
Key:
rats [1] = assay: Analgesic-anti-inflammatory activity, Randall and Selitto, brewer's yeast inflamed paw in rats (Table IV); type: in vivo, male Sprague-Dawley rats; conditions: ratio to controls (1.0)
Method: (§1) In the present study the test compounds were administered perorally by means of a stomach tube as an aqueous suspension in 5% acacia gum at a constant volume of 10 ml/kg to male Swiss mice and male Sprague-Dawley rats. Control rats and mice were given a corresponding volume of the aqueous suspension medium. The results were statistically evaluated by Dunnett's test (C. V. Dunnett.: J.A. Stat. Ass., 40, 1096, 1955).
4. Analgesic-anti-inflammatory activity
The analgesic-anti-inflammatory activity was evaluated in rats by the method of Randall and Selitto (Arch. Int. Pharmacodyn., 111, 409, 1957), using an analgesimeter to measure the minimum load that must be applied to a rat's hind paw to elicit a painful stimulus.
Both the controls and the experimental rats were injected into the right hind paw with 0.1 ml of 20% brewer's yeast in sterile saline immediately before the administration of the test compound.
The volume of the inflamed right hind paw was measured 1, 2 and 4 hours after the administration of the test compound.
The analgesic-anti-inflammatory activity was evaluated using an "analgesic index" expressed as a ratio between the sum of the average weights (grams) necessary to provoke a painful stimulus at different times in treated and control animals.

in vivo = conditions: rat, in vivo; rats, oral, 7 days, Litchfield and Wilcoxon
Method: as §1, with “medium.” for “medium. The results were statistically evaluated by Dunnett's test (C. V. Dunnett.: J.A. Stat. Ass., 40, 1096, 1955).”
(§2) The acute toxicity was determined on groups of 10 rats treated orally with 500, 1000, 1500 and 2000 mg/kg of the test compound by means of a stomach tube.

rats [2] = assay: in vivo; conditions: oral, 7 days, Litchfield and Wilcoxon
Method: as §1, with “medium.” for “medium. The results were statistically evaluated by Dunnett's test (C. V. Dunnett.: J.A. Stat. Ass., 40, 1096, 1955).”
as §2

rats [3] = assay: Ulcerogenic effect, gastric lesions in rats (Table VIII); type: in vivo, male Sprague-Dawley rats; conditions: single dose, 16 h
Method: as §1
The ulcerogenic effect was determined in rats by the method of Niemegeers et al. (Arzneimittel-Forschung 25, 1537, 1975). A single oral dose was administered to groups of 15 rats fasted for 9 hours before treatment and kept fasting throughout the whole experimental period. The animals were sacrificed 16 hours after treatment; the severity of lesions was scored according to an arbitrary scale ranging from + to ++++. For each group of rats, an ulcerogenic index was calculated according to Pauls et al., (Gastroenterology 8, 774, 1947).

CCCCC(C(=O)O)C(=O)N(Nc1ccccc1)c1ccccc1 (stereo not drawn) [B, Calcium salt of butylpropanedioic acid mono(1,2-diphenylhydrazide)]
Analgesic Index (rats [1]; 40 mg/kg oral): 1.27 | Analgesic Index (rats [1]; 80 mg/kg oral): 1.34 | Analgesic Index (rats [1]; 160 mg/kg oral): 1.57 | LD50 at 168 h (in vivo): 796 mg/kg | LD50 confidence limits (rats [2]): 537.75-1,179.28 mg/kg | Ulcerogenic Index (rats [3]; 40 mg/kg oral): 0 | Ulcerogenic Index (rats [3]; 80 mg/kg oral): 0 | Ulcerogenic Index (rats [3]; 160 mg/kg oral): 0.47 | Ulcerogenic Index (rats [3]; 320 mg/kg oral): 81.63

Source: US4301177A, “(3-Methyl-2-butenyl)propanedioic acid mono (1,2-diphenylhydrazide) and salts thereof” (Istituto de Angeli S.p.A., priority 1979, dated 1981)
